# Measured values taken from PubChem BioAssay AID1469 (National Center for Advancing Translational Sciences (NCATS), 2008).
# Chains of the proteins cited; added tags and fusions are not shown.
# UniProt P10828, whole entry: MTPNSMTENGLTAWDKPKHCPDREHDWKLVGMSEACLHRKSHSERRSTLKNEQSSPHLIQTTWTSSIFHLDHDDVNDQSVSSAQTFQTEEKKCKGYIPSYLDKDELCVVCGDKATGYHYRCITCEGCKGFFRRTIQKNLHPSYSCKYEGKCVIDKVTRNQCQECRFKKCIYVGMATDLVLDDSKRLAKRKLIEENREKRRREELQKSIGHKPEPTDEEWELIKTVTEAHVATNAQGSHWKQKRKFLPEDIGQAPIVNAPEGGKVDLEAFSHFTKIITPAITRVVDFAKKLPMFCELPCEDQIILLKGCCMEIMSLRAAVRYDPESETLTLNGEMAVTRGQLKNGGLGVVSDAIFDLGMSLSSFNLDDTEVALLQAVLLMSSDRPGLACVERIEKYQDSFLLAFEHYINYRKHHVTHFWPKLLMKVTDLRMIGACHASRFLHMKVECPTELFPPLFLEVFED
# Only a part is listed here, and it is no random draw. Active and inactive are the calls of the source. Calls come from the whole dose curve; as a rule, active = well fitted inhibition curve with a large enough effect; inconclusive = small, poorly fitted or top-dose-only effect, or effect the other way; inactive = flat fitted curve, though single readings scatter.
# Target: Thyroid hormone receptor beta (Homo sapiens) (UniProt P10828)
# Assay: qHTS for Inhibitors of the Interaction of Thyroid Hormone Receptor and Steroid Receptor Coregulator 2;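 note: plate controls were bound peptide for no effect and peptide without receptor for full effect; nearly all actives have a fitted effect of over 50% in size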
# Conditions: TRbeta-SRC2 peptide binding, fluorescence polarization, receptor liganded with 1 µM T3
# Excerpt: NIH Molecular Libraries Probe Production Network [MLPCN]
# NIH Chemical Genomics Center [NCGC]
# Assay Provider: R. Kip Guy, St. Jude Children's Research Hospital
# Thyroid receptor (TR) regulates many homeostatic processes including basal metabolism, cardiovascular function, body weight, and lipid trafficking. TR modulators are potential therapeutics for obesity and hyperlipidemias but current thyroid analogs have undesirable side effects, particularly cardiac stimulation. To identify inhibitors that specifically prevent the interaction of TR with the steroid receptor coregulator 2 (SRC2), a fluorescence polarization assay was screened. This assay detects interaction of the ligand-binding domain of human TRb with a Texas Red labeled SRC2 peptide, corresponding to a 20 amino acid region of the nuclear receptor interaction domain (Arnold et al., 2006). Small molecule inhibitors that block the interaction of TR and SRC2 are detected by a decrease in fluorescence polarization.
# Arnold, L. A.; Estebanez-Perpina, E.; Togashi, M.; Shelat, A.; Ocasio, C. A.; McReynolds, A. C.; Nguyen, P.; Baxter, J. D.; Fletterick, R. J.; Webb, P.; Guy, R. K. A high-throughput screening method to identify small molecule inhibitors of thyroid hormone receptor coactivator binding. Sci STKE 2006, p 13.
# NCGC Assay Protocol Summary:
# For screening, 5 uL/well 0.6 uM TRb and 20 nM SRC2 Texas Red in protein buffer (20mM Tris hydrochloride, 100mM NaCl, 10% glycerol, 1mM EDTA, 0.01% NP-40, 1mM DTT, 1uM T3 and 5% DMSO) was dispensed into black solid 1536-well plates (Grenier) using a solenoid-based dispenser. Following transfer of 23 nL compound or DMSO vehicle by a pin tool, the plates were centrifuged 15 s at 1000 RPM and incubated 5 hr at ambient temperature. […] Data were normalized to unbound (all components except TRb) and bound SRC2 Texas Red controls. In this assay, we provide % activity data for each concentration as well as potencies for the active compounds.
# Keywords: NIH Roadmap, MLPCN, MLI, MLSMR, qHTS, NCGC, qHTS, thyroid hormone receptor, steroid receptor coactivator, fluorescence polarization
compound,measurement,setting,value
CCC(C)(OO)OOC(C)(CC)OO (configuration not stated),"activity change, negative = inhibition",at 106 µM (top of the series),inactive: 5.24%
same,"activity change, negative = inhibition",at 201 µM (top of the series),inactive: -0.759%
Cc1cccc([N+](=O)[O-])c1[N+](=O)[O-],"activity change, negative = inhibition",at 106 µM (top of the series),inactive: 6.17%
same,"activity change, negative = inhibition",at 201 µM (top of the series),inactive: -6.16%
COc1ccc(OP(C)(=O)Nc2ccc(SC(F)(F)F)cc2)cc1 (configuration not stated),"activity change, negative = inhibition",at 106 µM (top of the series),inactive: -7.48%
CCOC(=O)c1ccc(NP(C)(=O)Oc2ccc(F)cc2)cc1 (configuration not stated),"activity change, negative = inhibition",at 106 µM (top of the series),inactive: 8.52%
CCN(CC)CCCOC(=O)C(O)(c1ccccc1)C1CCCCC1 (configuration not stated),"activity change, negative = inhibition",at 106 µM (top of the series),inactive: 0.266%
CCCCCOc1ccc(NP(C)(=O)Oc2ccc(Cl)cc2Cl)cc1 (configuration not stated),"activity change, negative = inhibition",at 106 µM (top of the series),inactive: 8.47%
CP(=O)(Nc1ccccc1)Oc1ccc(F)cc1 (configuration not stated),"activity change, negative = inhibition",at 106 µM (top of the series),inactive: -15.7%
COc1ccc(OP(C)(=O)Nc2cccc(Br)c2)cc1 (configuration not stated),"activity change, negative = inhibition",at 106 µM (top of the series),inactive: 3.84%
COc1ccc(NP(C)(=O)Oc2ccccc2OC)cc1 (configuration not stated),"activity change, negative = inhibition",at 106 µM (top of the series),inactive: 3.65%
Cc1ccc([N+](=O)[O-])c([N+](=O)[O-])c1,"activity change, negative = inhibition",at 106 µM (top of the series),inactive: 3.78%
same,"activity change, negative = inhibition",at 201 µM (top of the series),inactive: -2.5%
Cc1c([N+](=O)[O-])cccc1[N+](=O)[O-],"activity change, negative = inhibition",at 106 µM (top of the series),inactive: -13%
same,"activity change, negative = inhibition",at 201 µM (top of the series),inactive: 4.64%
Cc1cc(-c2cccc3ccccc23)c(C)cn1.O=[N+]([O-])c1cc([N+](=O)[O-])c(O)c([N+](=O)[O-])c1,"activity change, negative = inhibition",at 106 µM (top of the series),inactive: 7.49%
O=[N+]([O-])c1ccc(OP2(=O)COCCO2)cc1 (configuration not stated),"activity change, negative = inhibition",at 106 µM (top of the series),inactive: -1.19%
CP(=O)(Nc1ccc(SC(F)(F)F)cc1)Oc1ccc(F)cc1 (configuration not stated),"activity change, negative = inhibition",at 106 µM (top of the series),inactive: -1.31%
CCOP(=O)(CC)OCC,"activity change, negative = inhibition",at 106 µM (top of the series),inactive: -8.18%
CCOP(C)(=S)SCC(=O)NC(C)(CC)C(=O)O (configuration not stated),"activity change, negative = inhibition",at 106 µM (top of the series),inactive: 3%
CP(=O)(Nc1ccc2c(c1)OCCO2)Oc1ccccc1 (configuration not stated),"activity change, negative = inhibition",at 106 µM (top of the series),inactive: 3.71%
Cc1ccccc1NP(C)(=O)Nc1ccccc1C,"activity change, negative = inhibition",at 106 µM (top of the series),inactive: 0.987%
COc1ccc(OP(C)(=O)Nc2ccc(Br)cc2)cc1 (configuration not stated),"activity change, negative = inhibition",at 106 µM (top of the series),inactive: -0.407%
CP(=O)(Oc1ccccc1)N1CCOC1=O (configuration not stated),"activity change, negative = inhibition",at 106 µM (top of the series),inactive: 8.31%
CCc1ccc(OP(C)(=O)Nc2cccnc2)cc1 (configuration not stated),"activity change, negative = inhibition",at 106 µM (top of the series),inactive: -0.6%
COc1ccccc1OP(C)(=O)Nc1c(C)n(C)n(-c2ccccc2)c1=O (configuration not stated),"activity change, negative = inhibition",at 106 µM (top of the series),inactive: 2.46%
OCCSCCO,"activity change, negative = inhibition",at 106 µM (top of the series),inactive: -4.96%
CP(=O)(Nc1ccc(Cl)cc1)Oc1ccc(F)cc1 (configuration not stated),"activity change, negative = inhibition",at 106 µM (top of the series),inactive: -4.35%
COc1ccccc1OP(C)(=O)Nc1ccccc1Br (configuration not stated),"activity change, negative = inhibition",at 106 µM (top of the series),inactive: -2.51%
CC(C)(C)c1ccc(OP(C)(=O)O)cc1,"activity change, negative = inhibition",at 106 µM (top of the series),inactive: -2.73%
CN(C)C(=O)c1c([N+](=O)[O-])cc([N+](=O)[O-])cc1[N+](=O)[O-],"activity change, negative = inhibition",at 106 µM (top of the series),inactive: 2.46%
CP(=O)(OC12CC3CC(CC(C3)C1)C2)OC12CC3CC(CC(C3)C1)C2,"activity change, negative = inhibition",at 106 µM (top of the series),inactive: 1.24%
CCOC(=O)c1ccc(NP(C)(=O)Oc2ccc(Cl)cc2)cc1 (configuration not stated),"activity change, negative = inhibition",at 106 µM (top of the series),inactive: 5.35%
C/C1=C2N=C(/C=C3N=C(/C(C)=C4\[N-][C@@](C)([C@H]5N=C1[C@@](C)(CCC(=O)NC[C@H](C)OP(=O)([O-])O[C@@H]1[C@H](O)[C@H](n6cnc7cc(C)c(C)cc76)O[C@@H]1CO)[C@@H]5CC(N)=O)[C@](C)(CC(N)=O)[C@H]4CCC(N)=O)[C@@](C)(CC(N)=O)[C@@H]\3CCC(N)=O)C(C)(C)[C@@H]/2CCC(N)=O.[C-]#N.[Co+3],"activity change, negative = inhibition",at 53 µM (top of the series),inactive: -5.84%
Cc1cc(C)cc(OP(C)(=O)Nc2cccc(C(F)(F)F)c2)c1 (configuration not stated),"activity change, negative = inhibition",at 53 µM (top of the series),inactive: 11.7%
COc1ccc(OP(C)(=O)Nc2ccccc2Br)cc1 (configuration not stated),"activity change, negative = inhibition",at 106 µM (top of the series),inactive: -12.1%
COc1ccccc1OP(C)(=O)Nc1ccc(C)c(C)c1 (configuration not stated),"activity change, negative = inhibition",at 106 µM (top of the series),inactive: -4.62%
Cc1nc2ccc3ccccc3c2o1.O=[N+]([O-])c1cc([N+](=O)[O-])c(O)c([N+](=O)[O-])c1,"activity change, negative = inhibition",at 106 µM (top of the series),inactive: -28%
CP(=O)(OCCOc1ccccc1)OCCOc1ccccc1,"activity change, negative = inhibition",at 106 µM (top of the series),inactive: -2.24%
COc1ccccc1OP(C)(=O)Nc1ccc(Br)cc1 (configuration not stated),"activity change, negative = inhibition",at 106 µM (top of the series),inactive: -3.9%
CN(C)CCOC(=O)C(O)(c1ccccc1)C1CCCC1 (configuration not stated),"activity change, negative = inhibition",at 106 µM (top of the series),inactive: -6.03%
COc1ccc(OP(C)(=O)Nc2ccccn2)cc1 (configuration not stated),"activity change, negative = inhibition",at 106 µM (top of the series),inactive: -4.52%
Cc1c(NP(C)(=O)Oc2ccc(C(C)C)cc2)c(=O)n(-c2ccccc2)n1C (configuration not stated),"activity change, negative = inhibition",at 106 µM (top of the series),inactive: 0.654%
O=[N+]([O-])c1cc([N+](=O)[O-])c(Nc2ccccn2)c([N+](=O)[O-])c1,"activity change, negative = inhibition",at 106 µM (top of the series),inactive: -4.19%
CCc1ccc(OP(C)(=O)O)cc1,"activity change, negative = inhibition",at 106 µM (top of the series),inactive: -7.31%
CP(=O)(Nc1ccccn1)Oc1ccccc1 (configuration not stated),"activity change, negative = inhibition",at 106 µM (top of the series),inactive: 1.6%
COc1ccccc1OP(C)(=O)Nc1ccc(C)cc1C (configuration not stated),"activity change, negative = inhibition",at 106 µM (top of the series),inactive: -5.75%
